The list shows a part of the results, in another mix than the full data. The source made the active and inactive calls. The rule behind the calls is not given here.
assay: growth inhibitors of anaerobic choline-fed gram-negatives, minimal medium, absorbance (AID 1963822); conditions: Gram-negative bacterium anaerobic choline minimal medium, active compounds read low

Structure (SMILES) | z-score
CN(CCCl)CCCl | inactive: 0.35

From PubChem BioAssay AID1963822 (ICCB-Longwood Screening Facility, Harvard Medical School, 2024)
